Activity calls are given as the source filed them. The rule behind the calls is not given here.
Molecular target: Programmed cell death protein 1 (Homo sapiens) (UniProt Q15116)
Experiment: Inhibition of human PD-1 expressed in Jurkat T cells co-transfected with NFAT by automated microplate spectrophotometer analysis
Type: cell-based

Chains of the proteins cited; added tags and fusions are not shown.
UniProt Q15116, whole entry: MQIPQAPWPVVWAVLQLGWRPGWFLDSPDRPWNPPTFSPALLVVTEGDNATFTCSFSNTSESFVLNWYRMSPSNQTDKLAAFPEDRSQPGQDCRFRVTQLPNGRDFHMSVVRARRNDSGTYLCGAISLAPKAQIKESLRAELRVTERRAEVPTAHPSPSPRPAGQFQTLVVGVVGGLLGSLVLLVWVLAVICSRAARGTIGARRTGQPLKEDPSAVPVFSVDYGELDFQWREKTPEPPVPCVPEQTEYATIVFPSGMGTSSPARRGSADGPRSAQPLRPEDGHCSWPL

CCN(CC)C(=O)CCOc1cccc(-c2cccc(COc3cc(OCc4ccc5nonc5c4)c(CN[C@H](CO)C(=O)O)cc3Cl)c2Cl)c1
inhibition: inactive

Source: ChEMBL document CHEMBL5518218, “Discovery of Novel PD-L1 Small-Molecular Inhibitors with Potent In Vivo Anti-tumor Immune Activity” (J Med Chem, 2024)
